Tests used:
[1] = target: Mu-type opioid receptor (Cavia porcellus) (UniProt P97266); assay: Agonist activity at mu opioid receptor in guinea pig brain membranes by [35S]-GTPgammaS binding assay relative to control; assay type: functional, cell membranes
[2] = organism: Cavia porcellus; assay: Agonist activity at delta opioid receptor in guinea pig brain membranes by [35S]-GTPgammaS binding assay relative to control; assay type: cell membranes
[3] = target: Kappa-type opioid receptor (Cavia porcellus) (UniProt P41144); assay: Agonist activity at kappa opioid receptor in guinea pig brain membranes by [35S]-GTPgammaS binding assay relative to control; assay type: functional, cell membranes

The chains behind the UniProt entries cited, without tags or fusion partners. Where a name states a change or a piece, a line headed by the entry shows the natural chain unless it says otherwise.
UniProt P97266, whole entry: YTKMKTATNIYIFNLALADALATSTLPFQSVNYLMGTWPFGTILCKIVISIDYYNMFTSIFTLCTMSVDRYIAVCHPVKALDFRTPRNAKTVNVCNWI
UniProt P41144: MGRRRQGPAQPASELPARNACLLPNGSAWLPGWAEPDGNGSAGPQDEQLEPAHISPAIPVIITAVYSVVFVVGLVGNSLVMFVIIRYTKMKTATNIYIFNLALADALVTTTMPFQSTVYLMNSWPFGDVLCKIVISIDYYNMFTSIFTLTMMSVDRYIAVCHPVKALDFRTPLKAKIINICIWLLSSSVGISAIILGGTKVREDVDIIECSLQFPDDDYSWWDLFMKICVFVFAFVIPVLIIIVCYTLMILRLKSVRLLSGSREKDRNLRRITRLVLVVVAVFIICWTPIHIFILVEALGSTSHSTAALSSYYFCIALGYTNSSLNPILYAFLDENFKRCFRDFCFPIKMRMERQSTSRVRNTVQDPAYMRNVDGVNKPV

Measured: Emax

CC[C@@H]1CN2CC[C@@]3(O)C(=Nc4cccc(OC)c43)[C@@H]2C[C@@H]1/C(=C\OC)C(=O)OC
77%: [1] | [2] | [3]

Reference: ChEMBL document CHEMBL4406853 (Eur J Med Chem, 2019)
